Experimental data: ChEMBL document CHEMBL4422615, “Novel non-xanthine antagonist of the A2B adenosine receptor: From HTS hit to lead structure” (Eur J Med Chem, 2019)

Key:
Format in all cases: cell-based
[1] = species on record: Homo sapiens; test: Selectivity index, ratio of Ki for human A1 adenosine receptor expressed in CHO cell membranes to Ki for human A2B adenosine receptor expressed in HEK293 cell membranes
[2] = target: T1, Adenosine receptor A2b (Homo sapiens) (UniProt P29275); test: Displacement of [3H]DPCPX from human A2B adenosine receptor expressed in HEK293 cell membranes assessed as specific binding level at 3 x 10^-8 M after 60 mins by radioligand displacement assay relative to control
T1 sequence (whole entry): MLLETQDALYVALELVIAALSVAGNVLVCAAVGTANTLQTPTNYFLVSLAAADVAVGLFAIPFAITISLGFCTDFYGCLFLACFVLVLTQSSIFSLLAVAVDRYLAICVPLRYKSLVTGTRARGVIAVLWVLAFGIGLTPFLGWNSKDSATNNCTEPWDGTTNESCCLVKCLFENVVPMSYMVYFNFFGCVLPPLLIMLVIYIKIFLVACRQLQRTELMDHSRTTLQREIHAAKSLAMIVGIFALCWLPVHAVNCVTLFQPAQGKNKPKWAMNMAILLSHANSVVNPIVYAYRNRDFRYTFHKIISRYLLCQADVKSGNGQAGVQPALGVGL

[3] = target: T1, Adenosine receptor A2b (Homo sapiens); test: Displacement of [3H]DPCPX from human A2B adenosine receptor expressed in HEK293 cell membranes assessed as specific binding level at 1 x 10^-9 M after 60 mins by radioligand displacement assay relative to control
[4] = target: T1, Adenosine receptor A2b (Homo sapiens); test: Displacement of [3H]DPCPX from human A2B adenosine receptor expressed in HEK293 cell membranes assessed as specific binding level at 1 x 10^-8 M after 60 mins by radioligand displacement assay relative to control
[5] = species on record: Homo sapiens; test: Selectivity index, ratio of Ki for human A3 adenosine receptor expressed in HEK293 cell membranes to Ki for human A2B adenosine receptor expressed in HEK293 cell membranes
[6] = species on record: Mus musculus; test: Selectivity index, ratio of IC50 for recombinant mouse A1 adenosine receptor expressed in CHO cells to IC50 for mouse A2B adenosine receptor expressed in CHO cells
[7] = species on record: Homo sapiens; test: Selectivity index, ratio of IC50 for recombinant human A1 adenosine receptor expressed in CHO cells to IC50 for human A2B adenosine receptor expressed in CHO cells
[8] = target: T1, Adenosine receptor A2b (Homo sapiens); test: Displacement of [3H]DPCPX from human A2B adenosine receptor expressed in HEK293 cell membranes assessed as specific binding level at 3 x 10^-7 M after 60 mins by radioligand displacement assay relative to control
[9] = target: T1, Adenosine receptor A2b (Homo sapiens); test: Displacement of [3H]DPCPX from human A2B adenosine receptor expressed in HEK293 cell membranes assessed as specific binding level at 3 x 10^-10 M after 60 mins by radioligand displacement assay relative to control
[10] = species on record: Rattus norvegicus; test: Selectivity index, ratio of IC50 for recombinant rat A2A adenosine receptor expressed in CHO cells to IC50 for rat A2B adenosine receptor expressed in CHO cells
[11] = species on record: Mus musculus; test: Selectivity index, ratio of IC50 for recombinant mouse A3 adenosine receptor expressed in CHO cells to IC50 for mouse A2B adenosine receptor expressed in CHO cells
[12] = species on record: Homo sapiens; test: Selectivity index, ratio of IC50 for recombinant human A3 adenosine receptor expressed in CHO cells to IC50 for human A2B adenosine receptor expressed in CHO cells
[13] = species on record: Homo sapiens; test: Selectivity index, ratio of Ki for human A2A adenosine receptor expressed in HEK293 cell membranes to Ki for human A2B adenosine receptor expressed in HEK293 cell membranes
[14] = target: T1, Adenosine receptor A2b (Homo sapiens); test: Displacement of [3H]DPCPX from human A2B adenosine receptor expressed in HEK293 cell membranes assessed as specific binding level at 3 x 10^-9 M after 60 mins by radioligand displacement assay relative to control
[15] = species on record: Mus musculus; test: Selectivity index, ratio of IC50 for recombinant mouse A2A adenosine receptor expressed in CHO cells to IC50 for mouse A2B adenosine receptor expressed in CHO cells
[16] = target: T1, Adenosine receptor A2b (Homo sapiens); test: Displacement of [3H]DPCPX from human A2B adenosine receptor expressed in HEK293 cell membranes assessed as specific binding level at 1 x 10^-6 M after 60 mins by radioligand displacement assay relative to control
[17] = species on record: Homo sapiens; test: Selectivity index, ratio of IC50 for recombinant human A2A adenosine receptor expressed in CHO cells to IC50 for human A2B adenosine receptor expressed in CHO cells
[18] = target: T1, Adenosine receptor A2b (Homo sapiens); test: Displacement of [3H]DPCPX from human A2B adenosine receptor expressed in HEK293 cell membranes assessed as specific binding level at 1 x 10^-7 M after 60 mins by radioligand displacement assay relative to control

Activity [2]: 76.6%
Activity [3]: 94.7%
Activity [4]: 103%
Activity [8]: 24.4%
Activity [9]: 96.7%
Activity [14]: 98.2%
Activity [16]: 12.7%
Activity [18]: 48.5%
SMILES: CCn1c(=O)c2c(C)c(C(=O)N3CCC(O)CC3)sc2n(CCC(F)(F)F)c1=O
Ratio Ki [1]: > 10
Ratio Ki [5]: > 100
Ratio IC50 [6]: > 17
Ratio IC50 [7]: 20
Ratio IC50 [10]: 2.7
Ratio IC50 [11]: > 17
Ratio IC50 [12]: > 100
Ratio Ki [13]: > 10
Ratio IC50 [15]: 1.2
Ratio IC50 [17]: 13
